For two substances, Kd results are on record in doi:10.1101/2022.05.31.494188.

Experiment in all cases: SPR
What all share (conditions): Fc fusion

The target of experiment [1] is mouse FcγRIV (mFcγRIV), recombinant (mouse).
Experiment [2] has as its target human FcγRIIIa (hFcγRIIIa), recombinant (human) (UniProt P08637).
Experiment [3] has as its target human FcγRI (hFcγRI), recombinant (human) (UniProt P12314).

One may read the Kd as the constant that tells how readily two partners part at equilibrium.

Take “Avaren-Fc produced in wild-type N. benthamiana (AvFc^WT)”: the equilibrium dissociation constant (Kd) in experiment [1] was 2.53 µM; in experiment [2], 0.383 µM; in experiment [3] it was 0.00778 µM.

Take “Avaren-Fc produced in glycoengineered ΔXylT/ΔFucT N. benthamiana (AvFc^ΔXF)”: the Kd amounted to 0.457 µM in experiment [1] and 0.00404 µM in experiment [3].
